Experimental data from PubChem BioAssay (Tox21).
Values joined by “and” are separate entries in the source; they are usually repeats but may differ in a detail not shown here. Equal values may be shown once. For part of these data: What follows is the remainder of the data, with few or none of the hits. Where a call stands in place of a potency, no number is given. Only a part is listed here, and it is no random draw. Active and inactive are the calls of the source. Unless noted, the call rests on the fitted dose curve; in most records, active means well fitted curve in the direction sought with a large enough effect in the repeat runs; inconclusive means weak or mixed curves; inactive means no such curve, though single readings can be large; an effect the other way counts as inactive or inconclusive.

The chains behind the UniProt entries cited, without tags or fusion partners. Where a name states a change or a piece, a line headed by the entry shows the natural chain unless it says otherwise.
UniProt Q96RI1: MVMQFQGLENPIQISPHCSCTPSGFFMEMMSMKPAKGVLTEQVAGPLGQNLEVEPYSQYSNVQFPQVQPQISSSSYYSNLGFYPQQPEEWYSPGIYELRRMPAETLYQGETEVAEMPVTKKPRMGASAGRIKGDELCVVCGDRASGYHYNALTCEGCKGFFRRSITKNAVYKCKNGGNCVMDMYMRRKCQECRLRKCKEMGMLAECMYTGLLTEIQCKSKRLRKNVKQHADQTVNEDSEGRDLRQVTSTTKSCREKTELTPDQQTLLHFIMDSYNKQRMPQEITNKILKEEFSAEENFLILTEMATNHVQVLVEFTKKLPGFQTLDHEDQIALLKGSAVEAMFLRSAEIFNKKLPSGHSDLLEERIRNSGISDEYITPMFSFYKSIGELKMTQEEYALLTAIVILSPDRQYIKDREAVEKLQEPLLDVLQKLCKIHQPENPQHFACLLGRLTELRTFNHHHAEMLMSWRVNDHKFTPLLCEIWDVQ
UniProt Q92731, whole entry, looked up: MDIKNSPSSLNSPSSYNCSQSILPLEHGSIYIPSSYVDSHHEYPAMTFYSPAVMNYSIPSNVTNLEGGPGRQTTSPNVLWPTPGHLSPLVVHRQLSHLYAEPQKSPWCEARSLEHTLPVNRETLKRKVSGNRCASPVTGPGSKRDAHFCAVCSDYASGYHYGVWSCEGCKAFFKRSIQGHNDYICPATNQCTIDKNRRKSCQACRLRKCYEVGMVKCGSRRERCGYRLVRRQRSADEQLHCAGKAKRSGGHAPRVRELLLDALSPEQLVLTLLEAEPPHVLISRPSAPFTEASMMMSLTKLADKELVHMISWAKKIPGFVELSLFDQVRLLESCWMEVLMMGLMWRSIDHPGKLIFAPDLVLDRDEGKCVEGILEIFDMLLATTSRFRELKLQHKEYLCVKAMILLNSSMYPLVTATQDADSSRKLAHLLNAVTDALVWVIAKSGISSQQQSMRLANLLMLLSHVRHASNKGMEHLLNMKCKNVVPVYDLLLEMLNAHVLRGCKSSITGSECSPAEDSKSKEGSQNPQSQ
UniProt P11511: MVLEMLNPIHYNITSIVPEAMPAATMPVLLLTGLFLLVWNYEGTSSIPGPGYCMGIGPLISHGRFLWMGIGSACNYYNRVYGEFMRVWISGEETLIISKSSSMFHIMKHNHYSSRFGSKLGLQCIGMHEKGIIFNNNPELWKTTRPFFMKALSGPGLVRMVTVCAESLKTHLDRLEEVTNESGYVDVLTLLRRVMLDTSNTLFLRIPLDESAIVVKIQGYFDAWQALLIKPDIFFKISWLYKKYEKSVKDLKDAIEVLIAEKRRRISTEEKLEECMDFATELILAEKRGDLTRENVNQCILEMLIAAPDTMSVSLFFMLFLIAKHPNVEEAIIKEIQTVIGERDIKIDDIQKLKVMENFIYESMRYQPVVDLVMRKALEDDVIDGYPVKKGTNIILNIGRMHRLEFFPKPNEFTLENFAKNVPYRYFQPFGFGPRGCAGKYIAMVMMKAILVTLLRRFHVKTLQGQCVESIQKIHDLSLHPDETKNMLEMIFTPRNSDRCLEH
UniProt P03372, whole entry, looked up: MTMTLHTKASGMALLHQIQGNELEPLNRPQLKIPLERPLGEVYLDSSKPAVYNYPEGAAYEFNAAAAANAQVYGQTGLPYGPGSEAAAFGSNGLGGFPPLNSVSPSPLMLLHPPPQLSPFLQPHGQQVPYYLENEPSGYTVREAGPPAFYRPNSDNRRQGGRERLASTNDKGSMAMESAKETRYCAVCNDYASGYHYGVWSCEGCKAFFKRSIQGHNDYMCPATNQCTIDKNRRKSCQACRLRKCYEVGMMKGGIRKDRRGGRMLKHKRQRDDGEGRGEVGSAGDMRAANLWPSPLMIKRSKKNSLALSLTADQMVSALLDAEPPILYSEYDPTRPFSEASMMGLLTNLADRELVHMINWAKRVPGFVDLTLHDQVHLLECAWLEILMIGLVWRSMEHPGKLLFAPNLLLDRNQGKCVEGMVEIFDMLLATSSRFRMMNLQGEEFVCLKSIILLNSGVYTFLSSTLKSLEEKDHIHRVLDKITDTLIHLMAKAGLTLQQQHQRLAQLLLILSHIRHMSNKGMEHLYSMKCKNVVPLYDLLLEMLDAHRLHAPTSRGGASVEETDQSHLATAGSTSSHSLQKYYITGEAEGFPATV
UniProt P10275: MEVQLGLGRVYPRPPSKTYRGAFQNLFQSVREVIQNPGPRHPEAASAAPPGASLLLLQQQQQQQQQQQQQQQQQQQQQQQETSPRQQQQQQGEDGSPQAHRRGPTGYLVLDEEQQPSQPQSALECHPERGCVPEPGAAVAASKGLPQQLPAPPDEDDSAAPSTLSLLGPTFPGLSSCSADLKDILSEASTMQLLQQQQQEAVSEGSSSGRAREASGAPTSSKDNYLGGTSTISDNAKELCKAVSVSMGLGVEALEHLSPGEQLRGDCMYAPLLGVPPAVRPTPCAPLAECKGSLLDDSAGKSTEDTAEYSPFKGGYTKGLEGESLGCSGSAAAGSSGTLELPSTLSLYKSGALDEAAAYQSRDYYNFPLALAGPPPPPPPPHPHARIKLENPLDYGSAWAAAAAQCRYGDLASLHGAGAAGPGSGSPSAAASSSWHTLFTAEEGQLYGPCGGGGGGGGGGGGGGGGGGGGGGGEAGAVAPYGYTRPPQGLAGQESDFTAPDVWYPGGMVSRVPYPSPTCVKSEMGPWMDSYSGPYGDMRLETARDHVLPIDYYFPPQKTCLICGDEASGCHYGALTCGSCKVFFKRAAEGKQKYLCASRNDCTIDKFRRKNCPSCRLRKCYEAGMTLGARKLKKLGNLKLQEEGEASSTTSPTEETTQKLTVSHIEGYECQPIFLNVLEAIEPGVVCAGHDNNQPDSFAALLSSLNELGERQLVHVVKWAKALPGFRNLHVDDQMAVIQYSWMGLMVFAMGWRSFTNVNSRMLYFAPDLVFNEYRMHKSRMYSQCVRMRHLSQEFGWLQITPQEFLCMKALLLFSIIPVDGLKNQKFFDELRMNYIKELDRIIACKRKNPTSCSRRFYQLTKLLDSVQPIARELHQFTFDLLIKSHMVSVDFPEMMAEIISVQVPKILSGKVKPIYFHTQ
UniProt Q14994: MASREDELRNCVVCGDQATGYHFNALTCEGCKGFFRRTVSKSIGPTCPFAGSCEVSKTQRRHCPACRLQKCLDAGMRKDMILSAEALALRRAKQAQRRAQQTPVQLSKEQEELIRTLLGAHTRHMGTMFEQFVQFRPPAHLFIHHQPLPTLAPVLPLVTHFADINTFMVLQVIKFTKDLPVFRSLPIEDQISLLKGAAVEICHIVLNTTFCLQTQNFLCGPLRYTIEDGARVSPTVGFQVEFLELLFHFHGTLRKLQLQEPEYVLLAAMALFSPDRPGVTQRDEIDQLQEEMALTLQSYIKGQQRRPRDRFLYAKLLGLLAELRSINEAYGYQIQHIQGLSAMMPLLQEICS
UniProt P35869: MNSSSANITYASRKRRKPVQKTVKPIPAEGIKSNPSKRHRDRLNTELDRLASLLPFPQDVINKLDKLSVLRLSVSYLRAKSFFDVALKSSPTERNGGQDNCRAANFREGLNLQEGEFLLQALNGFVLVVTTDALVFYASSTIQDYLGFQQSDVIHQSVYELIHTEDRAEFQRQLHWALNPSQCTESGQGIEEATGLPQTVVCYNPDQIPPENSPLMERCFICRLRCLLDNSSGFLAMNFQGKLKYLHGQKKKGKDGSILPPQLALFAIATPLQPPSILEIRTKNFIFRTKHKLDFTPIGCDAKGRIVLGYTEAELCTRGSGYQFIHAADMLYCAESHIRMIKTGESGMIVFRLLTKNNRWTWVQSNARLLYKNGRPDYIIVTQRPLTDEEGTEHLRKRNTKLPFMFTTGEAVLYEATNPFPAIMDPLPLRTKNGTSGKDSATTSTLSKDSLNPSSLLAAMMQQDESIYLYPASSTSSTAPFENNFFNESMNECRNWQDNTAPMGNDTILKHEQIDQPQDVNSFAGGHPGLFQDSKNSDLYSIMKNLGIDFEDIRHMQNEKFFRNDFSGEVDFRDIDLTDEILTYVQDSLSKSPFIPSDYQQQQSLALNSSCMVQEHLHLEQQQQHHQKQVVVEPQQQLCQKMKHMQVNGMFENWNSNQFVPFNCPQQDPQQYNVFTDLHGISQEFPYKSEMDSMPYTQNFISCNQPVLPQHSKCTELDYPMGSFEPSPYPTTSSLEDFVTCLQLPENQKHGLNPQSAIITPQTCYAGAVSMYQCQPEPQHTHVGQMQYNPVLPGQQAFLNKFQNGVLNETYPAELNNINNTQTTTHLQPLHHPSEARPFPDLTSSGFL

Key:
[1] = qHTS assay to identify small molecule antagonists of the retinoic acid receptor (RAR) signaling pathway (AID 1159552; further: nearly all actives have a fitted effect of over 50% in size; further: potency means the concentration at half of the fitted maximal effect)
In short: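 Cells of the C3RL4 line were seeded, incubated overnight, then dosed with compounds in DMSO followed immediately by retinol (1 uM final). Six hours later luciferase detection reagent went in; signal was measured after 30 min at RT.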

[2] = target: Bile acid receptor (Homo sapiens) (UniProt Q96RI1); assay: qHTS assay to identify small molecule antagonists of the farnesoid-X-receptor (FXR) signaling pathway (AID 743217; active means well fitted inhibition curve with a large enough effect in the signal ratio in the repeat runs, not every such curve was filed as active; inconclusive means weak or mixed curves, or effect the other way; inactive means no such curve, though single readings can be large or run the other way; the % refers to the signal ratio); details: HEK293T FXR-UAS-bla, beta-lactamase ratio, CDCA-stimulated, 16 h
In short: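 Quantitative HTS, beta-lactamase reporter format: FXR-UAS-bla HEK 293T cells co-treated 16 h at 37 °C with compounds and 50 uM final chenodeoxycholic acid, then read by B/G FRET fluorescence.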

[3] = target: Bile acid receptor (Homo sapiens) (UniProt Q96RI1); assay: qHTS assay to identify small molecule agonists of the farnesoid-X-receptor (FXR) signaling pathway (AID 743220; active means well fitted activation curve with a large enough effect in the signal ratio in the repeat runs, not every such curve was filed as active; inconclusive means weak or mixed curves, or effect the other way; the % refers to the signal ratio); details: HEK293T FXR-UAS-bla, beta-lactamase FRET ratio, 16 h
[4] = qHTS assay to identify small molecule agonists of the NFkB signaling pathway (AID 1159509; active means well fitted curve in the direction sought with a large enough effect in the signal ratio in the repeat runs, not every such curve was filed as active; inconclusive means weak or mixed curves, or a change in a side signal; inactive means no such curve, though single readings can be large or run the other way; the % refers to the signal ratio); details: NFkB-bla ME-180 cells, beta-lactamase FRET ratio, 5 h; at 61 µM (top of the series) unless noted
In short: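 Beta-lactamase reporter assay run in quantitative high-throughput format on an NF-kB-responsive ME-180 line, with 5 hr compound treatment and a FRET-based blue/green fluorescence readout.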

[5] = target: Estrogen receptor beta (Homo sapiens) (UniProt Q92731); assay: qHTS assay to identify small molecule antagonists of the estrogen receptor beta (ER-beta) signaling pathway (AID 1259378; active means well fitted inhibition curve with a large enough effect in the signal ratio in the repeat runs, not every such curve was filed as active; inconclusive means weak or mixed curves, or effect the other way; inactive means no such curve, though single readings can be large or run the other way; the % refers to the signal ratio)
In short: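 Antagonist mode: compounds added to beta-lactamase reporter HEK293T ER-beta-UAS cells stimulated with E2 (1nM final), 16 hr at 37C. LiveBLAzer B/G FRET substrate, 2 hours room temperature, fluorescence read-out.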

[6] = target: Nuclear receptor subfamily 1 group I member 2 (Homo sapiens) (UniProt O75469); assay: Human pregnane X receptor (PXR) small molecule agonists, qHTS assay (AID 1346982); further: nearly all actives have a fitted effect of over 35% in size
In short: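 Stable HepG2 line reporting PXR-mediated CYP3A4 expression via luciferase. Treatment: 24 hr with compounds in DMSO at 37 C. Detection: ONE-Glo luminescence.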

[7] = target: Nuclear receptor subfamily 1 group I member 2 (Homo sapiens) (UniProt O75469); assay: CYP3A4 induction through human pregnane X receptor (PXR) by small molecules, qHTS assay (AID 1346984); further: nearly all actives have a fitted effect of over 40% in size
In short: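 After 24 h at 37C with compound, DPX-2 cells (HepG2, co-transfected PXR response element and CYP3A4 promoter-luciferase) got 3uM final P450-Glo Luciferin-IPA for 3 h; One-Glo luminescence followed.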

[8] = target: Nuclear receptor subfamily 1 group I member 2 (Homo sapiens) (UniProt O75469); assay: Human pregnane X receptor (PXR) activation by small molecules, qHTS assay (AID 1346985); further: nearly all actives have a fitted effect of over 40% in size
Aromatase (Homo sapiens) = Aromatase (Homo sapiens) (UniProt P11511); assay: qHTS assay to identify aromatase inhibitors (AID 743083); details: MCF-7 aro ERE, testosterone-driven ERE luciferase, 24 h; at 70.3 µM (top of the series); further: nearly all actives have a fitted effect of over 55% in size
[9] = target: Estrogen receptor (Homo sapiens) (UniProt P03372); assay: qHTS assay to identify small molecule antagonists of the estrogen receptor alpha (ER-alpha) signaling pathway (AID 743069; active means well fitted curve in the direction sought with a large enough effect in the signal ratio in the repeat runs, not every such curve was filed as active; inconclusive means weak or mixed curves, or effect the other way; inactive means no such curve, though single readings can be large or run the other way; the % refers to the signal ratio)
[10] = target: Estrogen receptor (Homo sapiens) (UniProt P03372); assay: qHTS assay to identify small molecule agonists of the estrogen receptor alpha (ER-alpha) signaling pathway (AID 743075; calls by dose curve;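 further: HEK293 GripTite cells with ER-alpha and UAS-driven beta-lactamase reporter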; further: potency means the concentration at half of the fitted maximal effect)
[11] = target: Estrogen receptor (Homo sapiens) (UniProt P03372); assay: qHTS assay to identify small molecule agonists of the estrogen receptor alpha (ER-alpha) signaling pathway using the BG1 cell line (AID 743079); further: nearly all actives have a fitted effect of over 20% in size; further: potency means the concentration at half of the fitted maximal effect
[12] = target: Estrogen receptor (Homo sapiens) (UniProt P03372); assay: qHTS assay to identify small molecule antagonists of the estrogen receptor alpha (ER-alpha) signaling pathway using the BG1 cell line in the presence of 0.1 nM 17-beta-estradiol (AID 1259244); details: VM7Luc4E2 (BG1) ERE-luciferase, antagonist mode, 0.1 nM E2, 22 h; further: nearly all actives have a fitted effect of over 50% in size
[13] = target: Estrogen receptor (Homo sapiens) (UniProt P03372); assay: qHTS assay to identify small molecule agonists of the estrogen receptor alpha (ER-alpha) signaling pathway in the presence of an antagonist (AID 1259383; calls by dose curve; further: top concentration of the series differs between compounds; nearly all actives have a fitted effect of over 15% in size)
[14] = target: Androgen receptor (Homo sapiens) (UniProt P10275); assay: qHTS assay to identify small molecule agonists of the androgen receptor (AR) signaling pathway using the MDA cell line (AID 743040; further: nearly all actives have a fitted effect of over 20% in size); details: MDA-kb2 AR-luc cells, MMTV luciferase, 16 h, active compounds read high
[15] = target: Androgen receptor (Homo sapiens) (UniProt P10275); assay: qHTS assay to identify small molecule antagonists of the androgen receptor (AR) signaling pathway using the MDA cell line (AID 743042; further: nearly all actives have a fitted effect of over 55% in size; further: potency means the concentration at half of the fitted maximal effect)
[16] = target: Androgen receptor (Homo sapiens) (UniProt P10275); assay: qHTS assay to identify small molecule antagonists of the androgen receptor (AR) signaling pathway using the MDA cell line in the presence of 0.5 nM R1881 (AID 1259243); further: nearly all actives have a fitted effect of over 50% in size; further: potency means the concentration at half of the fitted maximal effect
[17] = target: Androgen receptor (Homo sapiens) (UniProt P10275); assay: qHTS assay to identify small molecule agonists of the androgen receptor (AR) signaling pathway in the presence of an antagonist (AID 1259381; calls by dose curve; further: nearly all actives have a fitted effect of over 15% in size)
[18] = target: Nuclear receptor subfamily 1 group I member 3 (Homo sapiens) (UniProt Q14994); assay: qHTS assay to identify small molecule agonists of the constitutive androstane receptor (CAR) signaling pathway (AID 1224839); details: HepG2 hCAR CYP2B6-luciferase, agonist mode, 24 h;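 further: HepG2 cells stably carrying human CAR and a CYP2B6 luciferase reporter; nearly all actives have a fitted effect of over 15% in size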
[19] = target: Aryl hydrocarbon receptor (Homo sapiens) (UniProt P35869); assay: qHTS assay to identify small molecule that activate the aryl hydrocarbon receptor (AhR) signaling pathway (AID 743085); details: HepG2 AhR-luc (HG2L7.5c1), luciferase, 24 h;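 further: HG2L7.5c1 human HepG2 liver cells with stably integrated DRE-driven firefly reporter; nearly all actives have a fitted effect of over 15% in size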
[20] = target: Androgen receptor (Homo sapiens) (UniProt P10275); assay: qHTS assay to identify small molecule antagonists of the androgen receptor (AR) signaling pathway (AID 743035; active means well fitted inhibition curve with a large enough effect in the signal ratio in the repeat runs, not every such curve was filed as active; inconclusive means weak or mixed curves, or effect the other way; inactive means no such curve, though single readings can be large or run the other way; the % refers to the signal ratio; further: potency means the concentration at half of the fitted maximal effect)

SMILES: CC[N+](CC)(CC)CCOc1ccc(/C=C/c2ccccc2)cc1
- Potency [1]: inactive

SMILES: CCN(CCO)CCCC(C)Nc1ccnc2cc(Cl)ccc12 (stereo unspecified)
- activity change, negative = inhibition ([2]; at 5.95 µM (top of the series)): inactive: 6.4%
- activation ([3]; at 5.95 µM (top of the series)): inactive: -1.34%
- activation [4]: inactive: 0.161% [at 6.95 µM]
- activity, negative = inhibition [5]: inactive: -2.29% [at 8.39 µM]

SMILES: CCCCCCCCCCCC[N+](C)(C)CCCCCCCCCCCC
- Potency [1]: active: 17.2 µM

SMILES: Cc1cccc(S(=O)(=O)O)c1C
- Potency [1]: inactive

SMILES: CN1C(C)(C)CCCC1(C)C
- Potency [1]: inactive

SMILES: CCCN[C@H]1CCc2nc(N)sc2C1
- activation [4]: inactive: -0.809% [at 78.8 µM]
- Potency [6]: inactive
- Potency [7]: inactive
- Potency [8]: inactive

SMILES: CCOc1ccc2nc3cc(N)ccc3c(N)c2c1
- Potency [1]: inactive

SMILES: O=c1c(O)c(-c2ccc(O)cc2O)oc2cc(O)cc(O)c12
- Potency [1]: inactive

SMILES: NC(=O)CC[C@@H]1NC(=O)[C@H](Cc2ccccc2)NC(=O)[C@H](Cc2ccc(O)cc2)NC(=O)CCSSC[C@@H](C(=O)N2CCC[C@H]2C(=O)N[C@@H](CCCN=C(N)N)C(=O)NCC(N)=O)NC(=O)[C@H](CC(N)=O)NC1=O
- Potency [1]: inactive

SMILES: NCCCC(O)(P(=O)(O)O)P(=O)(O)O
- activity, negative = inhibition (Aromatase (Homo sapiens)): inactive: -4.03%
- activation [4]: inactive: -0.378%
- Potency [5]: inactive
- Potency [6]: inactive
- Potency [8]: inactive

SMILES: Nc1c(CC(=O)O)cccc1C(=O)c1ccc(Br)cc1
- activation [4]: inactive: 0.134%
- Potency [1]: inactive
- Potency [5]: inactive

SMILES: CC(C)NNC(=O)c1ccncc1
- Potency [9]: inactive
- Potency [10]: active: 16.9 µM [inconclusive]
- Potency [11]: active: 11.9 µM
- activity change, negative = inhibition ([2]; at 62.6 µM (top of the series)): inactive: 5.02%
- activation ([3]; at 62.6 µM (top of the series)): inactive: -1.84%
- activation [4]: inactive: 0.121%
- activity change, negative = inhibition ([12]; at 42.5 µM (top of the series)): inactive: 8.94%
- Potency [5]: inactive
- Potency [13]: inactive

SMILES: COc1ccccc1OCCNCC(O)COc1cccc2[nH]c3ccccc3c12 (stereo unspecified)
- Potency [1]: inactive

SMILES: CC(=O)Nc1c(I)c(NC(C)=O)c(I)c(C(=O)O)c1I
- Potency [1]: inactive

SMILES: C[N+]12CCC(CC1)C(OC(=O)C(O)(c1ccccc1)c1ccccc1)C2 (stereo unspecified)
- activation [4]: inactive: -0.352%
- Potency [5]: inactive

SMILES: CC(C)(C)C(=O)Oc1ccc(S(=O)(=O)Nc2ccccc2C(=O)NCC(=O)O)cc1
- Potency [1]: inactive
- Potency [5]: inactive

SMILES: CCCCCCCC[N+](CCCCCCCC)(CCCCCCCC)CCCCCCCC
- activity change ([14]; at 70.3 µM (top of the series)): inactive: -10.6%
- Potency [15]: active: 1.53 µM
- Potency [1]: active: 19.3 µM
- Potency [16]: active: 1.53 µM
- Potency [17]: inactive

SMILES: CN1CCC[C@H]1c1cccnc1
- Potency [9]: inactive
- Potency [10]: inactive
- Potency [11]: inactive
- activity change, negative = inhibition ([12]; at 42.5 µM (top of the series)): inactive: 2.29%
- activity change, negative = inhibition ([12]; at 92.4 µM (top of the series)): inactive: -0.89% and inactive: -1.91%
- Potency [5]: inactive
- Potency [13]: inactive

SMILES: O=C(O)CCCC[P+](c1ccccc1)(c1ccccc1)c1ccccc1
- Potency [1]: inactive
- Potency [16]: inactive
- Potency [17]: inactive

SMILES: Nc1c2c(nc3c1CCC3)CCCC2
- Potency [1]: inactive
- Potency [5]: inactive

SMILES: O=S1(=O)N=C(O)c2ccccc21
- Potency [1]: inactive
- Potency [5]: inactive
- Potency [6]: inactive

SMILES: O=C(O)[C@@H](O)[C@H](O)[C@H](O)[C@@H](O)C(=O)O
- activity change, negative = inhibition ([12]; at 42.5 µM (top of the series)): inactive: 7.4%
- Potency [13]: inactive

SMILES: C=C[C@H]1CN2CC[C@H]1C[C@@H]2[C@@H](O)c1ccnc2ccc(OC)cc12
- activation ([18]; at 42.5 µM (top of the series)): inactive: 0.902%
- activation ([18]; at 92.4 µM (top of the series)): inactive: -2.48%

SMILES: CC1(C)[C@@H](O[C@H]2O[C@H](C(=O)O)[C@@H](O)[C@H](O)[C@H]2O[C@@H]2O[C@H](C(=O)O)[C@@H](O)[C@H](O)[C@H]2O)CC[C@]2(C)[C@H]3C(=O)C=C4[C@@H]5C[C@@](C)(C(=O)O)CC[C@]5(C)CC[C@@]4(C)[C@]3(C)CC[C@@H]12
- Potency [1]: inactive
- Potency [5]: inactive

SMILES: [Cl][Pt-2]([Cl])([Cl])[Cl]
- Potency [15]: inactive
- Potency [16]: inactive

SMILES: CN(C)CCOc1ccccc1Cc1ccccc1
- activity change, negative = inhibition ([12]; at 42.5 µM (top of the series)): inactive: -1.71%
- Potency [13]: inactive

SMILES: NS(=O)(=O)c1cc(C(=O)O)c(NCc2ccco2)cc1Cl
- activation ([19]; at 70.3 µM (top of the series)): inactive: -0.964%
- activation ([19]; at 95 µM (top of the series)): inactive: -0.528%
- Potency [1]: inactive

SMILES: NCCCC[C@H](N[C@@H](CCc1ccccc1)C(=O)O)C(=O)N1CCC[C@H]1C(=O)O
- activation ([18]; at 42.5 µM (top of the series)): inactive: -0.524%
- Potency [6]: inactive
- Potency [8]: inactive

SMILES: C[N+](C)(C)CCO
- Potency [9]: inactive
- Potency [10]: inactive
- activity change, negative = inhibition ([12]; at 92.4 µM (top of the series)): inactive: 18.6% and inactive: -3.04%
- Potency [13]: inactive

SMILES: F[Si-2](F)(F)(F)(F)F
- Potency [20]: inactive
- activity change ([14]; at 70.3 µM (top of the series)): inactive: -0.18% and inactive: 2.65%
- Potency [15]: inactive
- Potency [16]: inactive
- Potency [17]: inactive

SMILES: COC(=O)C(c1ccccc1Cl)N1CCc2sccc2C1 (stereo unspecified)
- Potency [9]: inactive
- Potency [10]: active: 10.7 µM [activator]
- Potency [11]: active: 21.1 µM
- activity change, negative = inhibition ([2]; at 62.6 µM (top of the series)): inactive: -18.5%
- activation ([3]; at 62.6 µM (top of the series)): inactive: 2.33%
- activity change, negative = inhibition ([12]; at 42.5 µM (top of the series)): inactive: 2.22%
- Potency [5]: inactive
- Potency [13]: inactive

SMILES: CCCCCCCCCCCCCCCC[N+](C)(C)CCN(Cc1ccc(OC)cc1)c1ncccn1
- Potency [20]: active: 10.2 µM
- activity change ([14]; at 32.5 µM (top of the series)): inactive: -6.07%
- Potency [15]: inactive
- Potency [16]: active: 29.8 µM
- Potency [17]: inactive
